Laboratory results as given in patent publication US20080146555A1, “Uses of Kinase Inhibitors and Compositions Thereof” (GPC Biotech, Inc, priority 2004, published 2008).

Test system: NCI-Adr resistant
Test: SRB cytotoxicity, P-glycoprotein expressing cells with and without verapamil
Type: cell-based
Conditions: ratio of mean IC50
Protocol: In these experiments, the P-glycoprotein expressing NCI-Adr resistant subline (Vickers et al., 1989. Mol Endocrinology 3 (1):157-164) was used. […] Briefly, cells were plated in 96 well dishes 24 hours prior to compound addition. Where noted, they were exposed to verapamil for 4 hours prior to compound addition and then throughout the treatment period (72 hours). […] The plates were then washed 5 times with water and 100 μl of a Sulforhodamine B solution (4%) was added to each well. The plate was then incubated for 10 minutes at room temperature before removal of unbound dye by washing with 1% acetic acid.

Q: How did the “RR (relative resistance) NCI-Adr resistant −/+ verapamil” value turn out when `CC(=O)O[C@@]12CO[C@@H]1C[C@H](O)[C@@]1(C)C(=O)[C@H](O)C3=C(C)[C@@H](OC(=O)[C@H](O)[C@@H](NC(=O)OC(C)(C)C)c4ccccc4)C[C@@](O)([C@@H](OC(=O)c4ccccc4)[C@H]21)C3(C)C` [Taxotere, N-debenzoyl-N-tert-butoxycarbonyl-10-deacetyl paclitaxel, reference compound] was run?
A: Its value is 91.2.
